# Assay: Area under the curve (AUC) and increase ratio (ER) of FD-4 in plasma after oral administration to Wistar rats
# Protocol: Next, FD-4 was orally administered to Wistar rats using an oral sonde so that the dosage was 0.3 mg/kg. After the administration of the sample, blood was collected six times in total until six hours after the administration of the sample, and plasma was fractionated.
# It is noted that “AUCt” is AUC (ng·h/mL) of the test preparation, and “dosage t” is dosage (mg/kg) of the test preparation (target data of the test preparation obtained in the above 2).
substance,measurement,setting,value
fluorescein isothiocyanate-dextran 4 [Comparative Example 4],ER (increase ratio of AUC in consideration of dosage),"FD-4 dosage 5.0 mg/kg, based on Comparative Example 4 at 0.3 mg/kg",0.96
same,"concentration of FD-4 in plasma, Time 0.25 hr","Wistar rats, oral, FD-4 dosage 0.3 mg/kg, 0.25 hr after administration",3.0
same,"concentration of FD-4 in plasma, Time 0.5 hr","Wistar rats, oral, FD-4 dosage 0.3 mg/kg, 0.5 hr after administration",4.1
same,"concentration of FD-4 in plasma, Time 1 hr","Wistar rats, oral, FD-4 dosage 0.3 mg/kg, 1 hr after administration",3.0
same,"concentration of FD-4 in plasma, Time 2 hr","Wistar rats, oral, FD-4 dosage 0.3 mg/kg, 2 hr after administration",4.2
same,"concentration of FD-4 in plasma, Time 4 hr","Wistar rats, oral, FD-4 dosage 0.3 mg/kg, 4 hr after administration",4.8
same,"concentration of FD-4 in plasma, Time 6 hr","Wistar rats, oral, FD-4 dosage 0.3 mg/kg, 6 hr after administration",4.0
